# Compounds with a hit are over-represented: about 16% of the library has one in this group of screens.
# miR-21 FLuc: raises the signal of a miR-21 reporter | HeLa miR-21 FLuc reporter, luciferase, 48 h | Potency, µM (doses to about 38.3 µM), without a hit: at the top dose reporter change, positive = more light | 340,000 tested, under 10 active | AID 2288; active = well fitted rising curve with a large enough effect; inconclusive = small, poorly fitted or top-dose-only effect; inactive = no such curve, though single readings can be large or run the other way;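 note: % of control where 0% means no effect; miR-21 action dims this reporter so a rising signal means less miR-21 action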
#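 Compounds were titrated across several concentrations (up to approximately 40 uM) and incubated 48 hours with HeLa miR-21-FLuc reporter cells (miR-21 target sequence downstream of FLuc, endogenous miR-21). Readout was firefly luciferase luminescence after lytic detection reagent.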
# TDP1 block: blocks human tyrosyl-DNA phosphodiesterase 1 | Q9NUW8 | recombinant TDP1, AlphaScreen DNA substrate cleavage | Potency, µM (titrated, usually from 130 µM), for inactives: at the top dose activity change, negative = inhibition, most hits filed as inhibitors | 0.28% of 350,000 active; note: potency is the fitted concentration of half-maximal effect; % is set by controls: 0 for no effect and ±100 for the full control effect; nearly all actives have a fitted effect of over 40% in size
#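 E. coli-derived human Tdp1, 1 nM final. Cpd preinc 15 min RT; substrate 15 nM final, 5 min RT; AS bead mix 10 ug/ml final, 10 min RT. Signal loss = tyrosine-FITC cleavage. No-enzyme wells = max signal.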
# TDP1 cell noCPT: qHTS for Inhibitors of human tyrosyl-DNA phosphodiesterase 1 (TDP1): qHTS in cells in absence of CPT; 15% of 420,000 active; AID 686978, 2013; Potency, µM (titrated, usually from 46.2 µM), without a hit: at the highest dose activity change, negative = growth inhibition, actives largely listed as inhibitors; DT40 Tdp1-/- hTDP1 cells, no CPT, ATP luminescence, 48 h; note: potency is the fitted concentration of half-maximal effect; % is set by controls: 0 for no effect and ±100 for the full control effect; nearly all actives have a fitted effect of over 55% in size
#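 Growth of hTDP1-complemented DT40 Tdp1-knockout cells is measured by ATP luminescence after at least 48 hr compound exposure at 37 °C, with DMSO substituting for the 20 nM CPT used in the parallel screen.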
# TDP1 cell CPT: growth inhibition of DT40 Tdp1-/-;hTDP1 cells with camptothecin (screen for TDP1 inhibitors). chicken DT40 Tdp1-/-;hTDP1 cells + 20 nM CPT, ATP luminescence, 48 h. Potency, µM (titrated, usually from 46.2 µM), for the others: at the top dose activity change, negative = growth inhibition, usual class: inhibitors. 12% of 420,000 active. AID 686979; note: potency is the fitted concentration of half-maximal effect; % is set by controls: 0 for no effect and ±100 for the full control effect; nearly all actives have a fitted effect of over 55% in size
#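 Cell growth measured by CellTiter-Glo luminescence after a minimum 48 h, 37 C compound exposure with 20 nM CPT in Tdp1-knockout DT40 cells stably expressing hTDP1, seeded 400/well; qHTS titration format.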
# uPA surface inh: cell surface uPA generation inhibition; cell surface uPA generation assay, qHTS; Potency, µM (highest dose often 38.3 µM), for the others: at the top dose activity change, negative = inhibition, most hits filed as inhibitors; 0.31% of 330,000 active; AID 540303; active = well fitted inhibition curve with a large enough effect; inconclusive = small, poorly fitted or top-dose-only effect; inactive = no such curve, though single readings can be large or run the other way; tested in mouse RAW 264.7 cells; note: potency is the fitted concentration of half-maximal effect; % is set by controls: 0 for no effect and ±100 for the full control effect; nearly all actives have a fitted effect of over 55% in size
# Numbers without * were called inactive; ? = inconclusive; . = no result. Unless noted, calls come from the whole dose curve; as a rule, active = well fitted curve in the direction sought with a large enough effect; inconclusive = small, poorly fitted or top-dose-only effect, or another doubt; inactive = no such curve, though single readings can be large; an effect the other way counts as inactive or inconclusive.
# Assay codes: A = miR-21 FLuc; B = TDP1 block; C = TDP1 cell noCPT; D = TDP1 cell CPT; E = uPA surface inh
> Cc1ccc(Cc2nc3ccccc3nc2SCC(=O)N2CCCCC2)cc1
  A: 20%	B: 0%	C: 21µM*	D: ?	E: .

> O=C(CSc1nc2ccccc2nc1Cc1ccc(Cl)cc1)N1CCN(c2ccccc2)CC1
  A: -2%	B: 0%	C: ?	D: -9%	E: .

> CC1CCN(C(=O)CSc2nc3ccccc3nc2Cc2ccccc2)CC1
  A: 6%	B: -11%	C: 10µM*	D: 15µM*	E: .

> O=C(CSc1nc2ccccc2nc1Cc1ccc(Cl)cc1)N1CCCCC1
  A: -9%	B: 0%	C: 16µM*	D: ?	E: .

> COc1ccc(N2CCN(C(=O)CSc3nc4ccccc4nc3Cc3ccc(Cl)cc3)CC2)cc1
  A: 3%	B: 0%	C: ?	D: 21µM*	E: .

> CCOC(=O)Cn1nc(NC(=O)c2ccc(C(=O)OC)cc2)cc1C
  A: 6%	B: 3%	C: ?	D: ?	E: -7%

> N#Cc1ccc(CNc2cnccn2)cc1
  A: 1%	B: 3%	C: 0%	D: -22%	E: .

> COc1ccc(N2CC(C(=O)Nc3nnc(SCCC4OCCO4)s3)CC2=O)cc1 (stereo unspecified)
  A: -3%	B: 2%	C: 11%	D: -9%	E: -3%

> O=C(CSc1nc2ccccc2nc1SCC(=O)N1CCCCC1)N1CCCCC1
  A: 0%	B: 9%	C: ?	D: 16µM*	E: -2%

> COc1ccccc1N1CCN(C(=O)CSc2nc3ccccc3nc2Cc2ccccc2)CC1
  A: 9%	B: 0%	C: 23µM*	D: 23µM*	E: .

> O=C(CSc1nc2ccccc2nc1SCC(=O)N1CCOCC1)N1CCOCC1
  A: -5%	B: 3%	C: -17%	D: -4%	E: 2%

> CC1CCCCN1C(=O)CSc1nc2ccccc2nc1Cc1ccc(Cl)cc1 (stereo unspecified)
  A: 20%	B: 3%	C: ?	D: 18µM*	E: .

> COc1ccc(-c2cc3c(=O)n(CC(=O)NCc4ccccc4OC)ncn3n2)cc1
  A: -3%	B: .	C: -1%	D: -27%	E: -4%

> Cc1ccccc1CC1(CO)CCCN(Cc2ccccc2Cl)C1 (stereo unspecified)
  A: 2%	B: .	C: -17%	D: 1%	E: 1%

> Cc1cccc(-c2ncc(CN3CCCC(CO)(Cc4ccccc4C)C3)cn2)c1 (stereo unspecified)
  A: 1%	B: .	C: -25%	D: 23µM*	E: 14%

> Cc1ccc(C)c(-c2[nH]ncc2CN2CCCC(CO)(Cc3ccccc3C)C2)c1 (stereo unspecified)
  A: 4%	B: 3%	C: 13µM*	D: 7.3µM*	E: 7%

> COc1cc(CN2CCCC(CO)(Cc3ccccc3C)C2)cc2c1OCO2 (stereo unspecified)
  A: -3%	B: 0%	C: ?	D: 15µM*	E: -4%

> COC(=O)C(C)N(C(=O)c1cccc2ccccc12)c1c(C)cccc1C (stereo unspecified)
  A: 16%	B: 6%	C: 16µM*	D: ?	E: .

> COc1ccccc1NC(=O)C[n+]1ccccc1C
  A: -4%	B: 4%	C: 5%	D: 20%	E: 1%

> O=C(CCC(=O)c1ccc(F)cc1)Nc1cccc(Br)c1
  A: 1%	B: .	C: 8%	D: 6%	E: -27%

> Cc1ccc(C(=O)CCNc2cccc(Br)c2)o1
  A: -22%	B: 8%	C: 18µM*	D: 21µM*	E: -2%

> Cc1ccc(C(=O)CCNc2ccc(Br)cc2)o1
  A: -28%	B: 4%	C: 13µM*	D: 13µM*	E: 0%

> Cc1ccc(C(=O)CCNc2ccc(F)c(Cl)c2)o1
  A: -11%	B: 0%	C: 16µM*	D: 16µM*	E: -5%

> Cc1ccc(C(=O)CCNc2ccccc2)o1
  A: -27%	B: 6%	C: 8.2µM*	D: ?	E: -8%

> CC(C)(C)c1ccc(CC(=O)N2CCC2(C)C(=O)Nc2ccc3[nH]ncc3c2)cc1 (stereo unspecified)
  A: .	B: .	C: 9.2µM*	D: 15µM*	E: .

> CCCC(=O)N1CCCC1(C)C(=O)Nc1ccc2cn[nH]c2c1 (stereo unspecified)
  A: .	B: .	C: -2%	D: -27%	E: .

> O=C(Cc1ccccc1)Nc1ccc2[nH]ncc2c1
  A: -8%	B: 3%	C: 5%	D: -5%	E: -16%

> C#Cc1ccc(NC(=O)C2(C)CCN2C(=O)C/C=C/c2ccccc2)cc1 (stereo unspecified)
  A: .	B: .	C: 9.2µM*	D: 16µM*	E: .

> C#Cc1ccc(NC(=O)C2(C)CCN2C(=O)Cc2ccc(C(C)(C)C)cc2)cc1 (stereo unspecified)
  A: .	B: .	C: ?	D: 21µM*	E: .

> CC(C)(C)c1ccc(CC(=O)N2CCC2(C)C(=O)NS(=O)(=O)c2ccccc2)cc1 (stereo unspecified)
  A: .	B: .	C: 5%	D: -3%	E: .

# In the list so far, these contain a furan ring, fused or not.
# Assay codes: A = miR-21 FLuc; B = TDP1 block; C = TDP1 cell noCPT; D = TDP1 cell CPT; E = uPA surface inh
> Cc1ccc(C(=O)CCNc2cccc(Br)c2)o1
  A: -22%	B: 8%	C: 18µM*	D: 21µM*	E: -2%

> Cc1ccc(C(=O)CCNc2ccc(Br)cc2)o1
  A: -28%	B: 4%	C: 13µM*	D: 13µM*	E: 0%

> Cc1ccc(C(=O)CCNc2ccc(F)c(Cl)c2)o1
  A: -11%	B: 0%	C: 16µM*	D: 16µM*	E: -5%

> Cc1ccc(C(=O)CCNc2ccccc2)o1
  A: -27%	B: 6%	C: 8.2µM*	D: ?	E: -8%

# New compounds follow:
# Assay codes: A = miR-21 FLuc; B = TDP1 block; C = TDP1 cell noCPT; D = TDP1 cell CPT; E = uPA surface inh
> CCC(=O)N1CCC1(C)C(=O)Nc1ccccc1 (stereo unspecified)
  A: .	B: .	C: 1%	D: 0%	E: .

> CC1(C(=O)Nc2ccc3[nH]ncc3c2)CCN1C(=O)Cc1ccc(-c2ccccc2)cc1 (stereo unspecified)
  A: .	B: .	C: 13µM*	D: 16µM*	E: .

> CN(C)C(=S)NC(=NCc1ccc([N+](=O)[O-])cc1)c1ccccc1
  A: 3%	B: 1%	C: -23%	D: ?	E: -7%

> COc1ccc([C@H]2C[C@@H](n3cc(C4CC4)nn3)[C@H](O)CN2Cc2cccs2)cc1
  A: .	B: .	C: ?	D: -10%	E: .

> O=C(CN1C(=O)CC(c2ccc(F)cc2)=Nc2ccccc21)NCc1ccccc1Cl
  A: 1%	B: 2%	C: 26µM*	D: ?	E: .

> CN(C)c1ccc(NC(=O)CN2C(=O)CC(c3ccccc3)=Nc3ccccc32)cc1
  A: 0%	B: 8%	C: -21%	D: 2%	E: 3%

> O=C1CC(c2ccccc2)=Nc2ccccc2N1Cc1ccccc1
  A: 0%	B: 2%	C: -28%	D: -8%	E: 7%

> Cc1ccc(C2=Nc3ccccc3N(CC(=O)NCc3ccc(F)cc3)C(=O)C2)cc1C
  A: -35%	B: 7%	C: 23µM*	D: 15µM*	E: .

> Cc1ccc(C2=Nc3ccccc3N(CC(=O)NCc3ccc(Cl)cc3)C(=O)C2)cc1C
  A: -36%	B: 3%	C: 15µM*	D: ?	E: .

> O=C(OCCc1cc2ccccc2c(=O)o1)c1ccc2c(c1)OCO2
  A: .	B: 0%	C: ?	D: ?	E: -1%

> CN(C)CCN(C(=O)CCS(=O)(=O)c1ccccc1)c1nc2c(F)cccc2s1
  A: -4%	B: 5%	C: 16%	D: -28%	E: 6%

> Cc1ccc2sc(N(CCCN(C)C)C(=O)CCS(=O)(=O)c3ccccc3)nc2c1C
  A: ?	B: 3%	C: 2.6µM*	D: 2.3µM*	E: ?

> COc1ccc(OC)c2sc(N(CCCN(C)C)C(=O)CCS(=O)(=O)c3ccccc3)nc12
  A: .	B: 3%	C: 0.65µM*	D: 1.5µM*	E: ?

> COc1ccc(OCC(=O)N2CCN(C(=O)c3ccc(OC)cc3)CC2)cc1
  A: 1%	B: .	C: .	D: .	E: .

> CC(C)(C)NC(=O)C1C(c2ccccc2)=Nc2ccccc2N1C(=O)c1ccc(C(F)(F)F)cc1 (stereo unspecified)
  A: .	B: .	C: 16µM*	D: ?	E: .

> CCCCNC(=O)C1C(c2ccccc2)=Nc2ccccc2N1C(=O)c1ccc(C)cc1 (stereo unspecified)
  A: .	B: .	C: ?	D: 13µM*	E: .

# Assay outcomes as filed in PubChem BioAssay.
